Measured values taken from ChEMBL document CHEMBL4806967, “Heterocyclic kinase inhibitors and uses thereof” (2020).

By UniProt entry, the sequences of proteins in these tests, tags left out.
UniProt P11712, whole entry: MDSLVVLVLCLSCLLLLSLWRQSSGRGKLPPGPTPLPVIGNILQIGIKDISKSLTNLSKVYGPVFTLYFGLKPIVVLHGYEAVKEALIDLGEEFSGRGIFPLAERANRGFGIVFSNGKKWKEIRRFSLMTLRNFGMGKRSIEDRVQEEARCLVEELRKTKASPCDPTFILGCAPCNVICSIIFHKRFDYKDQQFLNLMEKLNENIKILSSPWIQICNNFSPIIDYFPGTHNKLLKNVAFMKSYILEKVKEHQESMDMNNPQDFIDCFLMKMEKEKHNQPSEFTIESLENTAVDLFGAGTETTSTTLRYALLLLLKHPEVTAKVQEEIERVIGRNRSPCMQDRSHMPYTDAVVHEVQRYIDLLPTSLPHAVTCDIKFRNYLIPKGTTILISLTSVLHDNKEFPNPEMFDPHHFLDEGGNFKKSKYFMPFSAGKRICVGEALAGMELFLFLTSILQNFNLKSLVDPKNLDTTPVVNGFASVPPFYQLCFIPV

Key:
Cytochrome P450 2A6 = molecular target: T1, Cytochrome P450 2A6 (Homo sapiens, UniProt P11509)
T1 sequence (P11509 whole entry): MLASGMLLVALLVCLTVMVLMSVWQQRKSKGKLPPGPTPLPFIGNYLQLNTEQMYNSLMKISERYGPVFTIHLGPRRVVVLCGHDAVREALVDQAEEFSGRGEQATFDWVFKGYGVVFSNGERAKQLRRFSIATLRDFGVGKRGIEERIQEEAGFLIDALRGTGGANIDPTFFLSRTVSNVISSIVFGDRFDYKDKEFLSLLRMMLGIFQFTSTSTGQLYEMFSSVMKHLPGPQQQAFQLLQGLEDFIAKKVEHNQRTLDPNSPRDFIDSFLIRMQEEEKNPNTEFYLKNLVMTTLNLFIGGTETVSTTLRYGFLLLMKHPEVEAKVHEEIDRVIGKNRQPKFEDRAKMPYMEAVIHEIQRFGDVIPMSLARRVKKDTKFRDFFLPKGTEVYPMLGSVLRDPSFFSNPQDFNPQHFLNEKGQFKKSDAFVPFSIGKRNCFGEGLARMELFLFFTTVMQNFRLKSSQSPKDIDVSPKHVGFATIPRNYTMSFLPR

Cytochrome P450 2C9 = Cytochrome P450 2C9 (Homo sapiens, UniProt P11712)
[1] = human, microsomes
[2] = mouse, microsomes

Cc1nc(Nc2ncc(C(=O)Nc3c(C)cccc3Cl)s2)cc(N2CCN(CCO)CC2)n1.O [DASATINIB]
IC50 (Cytochrome P450 2A6): 35 µM
IC50 (Cytochrome P450 2C9): 50 µM
t1/2 [1]: 10 min
t1/2 [2]: 18 min
